Measurements from PubChem BioAssay AID624352 (Sanford-Burnham Center for Chemical Genomics, 2012).
The entries are a selection whose mix differs from that of the whole data set. The source made the active and inactive calls.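 The calls were made as follows: active = inhibition of the luminescence signal of 40% or more relative to plate controls, in a single-dose primary screen at 18.75 µM; inactive = the rest.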

experiment: HIF-2a reporter inhibitors, primary screen, luminescence, 786-0 RCC cells (AID 624352); conditions: 786-0 RCC cells HIF-2a reporter, luciferase luminescence, overnight; at 18.8 µM; hits give high values

| SMILES | inhibition |
| --- | --- |
| CCC(=O)N(c1ccccc1)C1(COC)CCN(CCn2nnn(CC)c2=O)CC1 | inactive: 12.1% |
| CCC(=O)N(c1ccccc1)C1(COC)CCN(CCc2cccs2)CC1 | inactive: 4.79% |
